Target: human histamine H3 receptor (Homo sapiens, UniProt Q9Y5N1)
Settings: read-out: % of control specific binding, H3; 1 µM

By UniProt entry, the sequences of proteins in these tests, tags left out. Where a name states a change or a piece, a line headed by the entry shows the natural chain unless it says otherwise.
UniProt Q9Y5N1: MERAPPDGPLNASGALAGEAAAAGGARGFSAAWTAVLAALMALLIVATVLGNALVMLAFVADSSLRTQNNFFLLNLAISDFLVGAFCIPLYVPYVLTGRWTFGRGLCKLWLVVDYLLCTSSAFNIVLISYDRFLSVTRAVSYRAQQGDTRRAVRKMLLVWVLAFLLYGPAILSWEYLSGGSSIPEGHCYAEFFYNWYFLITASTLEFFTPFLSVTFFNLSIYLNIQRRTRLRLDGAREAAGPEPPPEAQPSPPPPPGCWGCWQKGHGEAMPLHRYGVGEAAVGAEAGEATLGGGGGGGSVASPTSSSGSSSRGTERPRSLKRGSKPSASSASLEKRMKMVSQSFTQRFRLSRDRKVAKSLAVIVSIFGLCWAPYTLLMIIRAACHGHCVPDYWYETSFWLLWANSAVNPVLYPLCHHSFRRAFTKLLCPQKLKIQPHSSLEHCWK

Question: With (R)-(−)-α-Methylhistamine as the substance, how does the inhibition read?
Answer: 99%

Reference: publication PMC10823479 (Journal of Medicinal Chemistry, 2024)
